This experiment can be described thus: Inhibition of Influenza virus Cap-dependent endonuclease. More on the design: species or system Influenza A virus.

pIC50: −log10 of the molar value.

In general, pIC50 refers to −log10 of the IC50, conventionally taken in molar units. `CC(CN(C)C)N1CN(C2c3ccccc3CSc3ccccc32)n2ccc(=O)c(O)c2C1=O` (configuration not stated) gave a pIC50 of 6.82. In turn, `CC(C)N1CN(C2c3ccccc3COc3ccccc32)n2ccc(=O)c(O)c2C1=O` (configuration not stated) had a pIC50 of 6.58.

Source of the values: ChEMBL document CHEMBL4699501, “Dihydrodibenzothiepine: Promising hydrophobic pharmacophore in the influenza cap-dependent endonuclease inhibitor” (Bioorg Med Chem Lett, 2020).
